{"source": "patent EP4834108A1", "about": "“AGENT FOR SHORTENING GROWTH PERIOD OF PLANT, FORMULATION FOR SHORTENING GROWTH PERIOD, AGENT FOR INDUCING EXPRESSION OF ANTHOGENESIS INDUCING GENE, METHOD FOR SHORTENING GROWTH PERIOD OF PLANT, PLANT, AGENT FOR MAKING GROWTH SPEED OF PLANT UNIFORM, AND METHOD FOR MAKING GROWTH SPEED OF PLANT UNIFORM” (dated 2026)", "key": {"[1]": {"test_system": "tomato (Regina)", "assay": "Experiment 1: number of days from sowing to flowering and to fruit setting of treated tomato", "settings": "mean of 6 plants; for Number of days to flowering: control group 1: 62; for Number of days to fruit setting: control group 1: 76", "protocol": "(§1) A treatment agent was prepared so that the L-form of ergothioneine (EGT) had the concentration below. A commercially available EGT was used, and pure water was used as a solvent.\nIn a pot having a diameter of 65 mm, 90 mL of seedling raising soil (available from TAKII & CO., LTD.) was placed, and tomato (Regina) seeds were sown to grow one tomato plant per pot. The cultivation conditions were set to a 16-hour light and 8-hour dark cycle in a growth chamber set at a room temperature of 22°C, with a light intensity of 5000 lx in the central part under fluorescent lamp irradiation. Bottom-watering was performed for irrigation.\nAfter 28 days from sowing, the tomato seedlings were transplanted into pots with a diameter of 135 mm, filled with 900 g of seedling raising soil (available from TAKII & CO., LTD.), and further grown in a greenhouse set at a room temperature of 25°C. The number of days from sowing to flowering (number of days to flowering) and the number of days from sowing to fruit setting (number of days to fruit setting) were then recorded.\nTo the tomato seedlings grown in the growth chamber, 50 mL of 0.1 mM or 0.5 mM treatment agent was supplied in place of water, by bottom-watering after 22 days and 25 days from sowing. These were designated as treated groups 1-1 and 1-2, respectively.\nThe tomatoes were transplanted after 28 days from sowing, and 50 mL of 0.5 mM treatment agent was applied by soil drenching around the tomato roots after 33 days, 35 days, and 37 days from sowing, and this was designated as treated group 1-3.\nIn addition to the same treatment as in the treated group 3, 50 mL of a treatment agent having an EGT concentration of 0.5 mM was applied by soil drenching around the tomato roots after 39 days, 41 days, and 43 days from sowing, and this was designated as treated group 1-4.\nNote that \"control group 1\" presented in Table 1 is a control group that has not been treated with the treatment agent, and \"treated group 1-1\" to \"treated group 1-4\" are treated groups that have been treated with the treatment agent. The numerical values for each evaluation item are the average value and standard deviation (SD) based on the number of test plants."}, "[2]": {"test_system": "FT gene", "assay": "Experiment 3: transcriptome (microarray) analysis of treated Arabidopsis thaliana, FT gene expression", "settings": "50 mL of 1 mM treatment agent by bottom-watering eight days after sowing, RNA extracted on day 20 after sowing", "protocol": "as §1\nIn a plastic pot having a diameter of 60 mm and a height of 55 mm, granular soil (Kumiai horticultural soil) and vermiculite were mixed in a volume ratio of 3:1 and placed, and one Arabidopsis thaliana (Col-0) plant was sown per pot. Plastic deep dishes each having a diameter of 160 mm and a height of 28 mm were prepared, and six pots were respectively placed therein. They were placed in a thermostatic chamber set at a room temperature of 22°C with a 16-hour light and 8-hour dark cycle. The light conditions were set such that the light intensity was 5000 lx in the central part under fluorescent lamp irradiation. Bottom-watering was performed for irrigation, and the water level was set at about 5 mm.\nAfter eight days from sowing, 50 mL of 1 mM treatment agent was supplied in place of water, by bottom-watering. Note that the group in which water was used in place of the aqueous solution of ergothioneine was designated as an untreated control group.\nOn day 20 after sowing, Arabidopsis thaliana was frozen with liquid nitrogen, total RNA was then extracted using NucleoSpin RNA Plant (Takara Bio Inc.), and transcriptome analysis was performed using Arabidopsis microarray Ver. 4.0 (Agilent Technologies, Inc.). […]"}, "[3]": {"settings": "Treated group 1-1: 50 mL of 0.1 mM treatment agent by bottom-watering after 22 and 25 days from sowing"}, "[4]": {"settings": "Treated group 1-2: 50 mL of 0.5 mM treatment agent by bottom-watering after 22 and 25 days from sowing"}, "[5]": {"settings": "Treated group 1-3: 50 mL of 0.5 mM treatment agent by soil drenching after 33, 35 and 37 days from sowing"}, "[6]": {"settings": "Treated group 1-4: 50 mL of 0.5 mM treatment agent by soil drenching after 33, 35, 37, 39, 41 and 43 days from sowing"}}}
{"smiles": "C[N+](C)(C)[C@@H](Cc1c[nH]c(=S)[nH]1)C(=O)[O-]", "values": [{"measurement": "Number of days to flowering", "setting": "[1]; [3]", "value": 57, "unit": "days"}, {"measurement": "Number of days to fruit setting", "setting": "[1]; [3]", "value": 68, "unit": "days"}, {"measurement": "Number of days to flowering", "setting": "[1]; [4]", "value": 57, "unit": "days"}, {"measurement": "Number of days to fruit setting", "setting": "[1]; [4]", "value": 70, "unit": "days"}, {"measurement": "Number of days to flowering", "setting": "[1]; [5]", "value": 58, "unit": "days"}, {"measurement": "Number of days to fruit setting", "setting": "[1]; [5]", "value": 70, "unit": "days"}, {"measurement": "Number of days to flowering", "setting": "[1]; [6]", "value": 59, "unit": "days"}, {"measurement": "Number of days to fruit setting", "setting": "[1]; [6]", "value": 74, "unit": "days"}, {"measurement": "amount of the transcription product of the FT gene, increase as compared with the untreated control", "setting": "[2]", "value": 2.4, "unit": "times"}]}
